Laboratory results reported in paper PMC8386128, “Evaluation of Short-Chain Antimicrobial Peptides With Combined Antimicrobial and Anti-inflammatory Bioactivities for the Treatment of Zoonotic Skin Pathogens From Canines” (Frontiers in Microbiology, 2021).

System: sheep and mouse erythrocytes
Conditions: red cells of sheep, 2 h

AAVTRRILCWFA-NH2 [Allomyrinasin]
minimum hemolytic concentration (MHC), required to cause 10% hemolysis: 128 to 256 µg/mL

No end group written: not given here.
